{
  "source": "patent US20120115880A1",
  "target": "p53 (endogenous wild-type p53 of human retinoblastoma cells and human fetal retinal cells) (human) (UniProt P04637)",
  "test": "cell-based or functional assay",
  "data": [
    {"substance": "MDM2 (ectopically expressed from an MDM2 cDNA vector in Y79 cells)", "values": [
      {"measurement": "luciferase activity of the p53 reporter construct PG13 in retinoblastoma (Y79) cells", "result": 11, "unit": "fold"}
    ]}
  ]
}
